{"sequences": {"note": "Protein sequences, listed by entry. Tags and fused reporters are not part of them. Chains listed by the source or under a name are the forms on record and can include a tag or linker. Residues count along the entry.", "UniProt E3UMS2, 1-296": "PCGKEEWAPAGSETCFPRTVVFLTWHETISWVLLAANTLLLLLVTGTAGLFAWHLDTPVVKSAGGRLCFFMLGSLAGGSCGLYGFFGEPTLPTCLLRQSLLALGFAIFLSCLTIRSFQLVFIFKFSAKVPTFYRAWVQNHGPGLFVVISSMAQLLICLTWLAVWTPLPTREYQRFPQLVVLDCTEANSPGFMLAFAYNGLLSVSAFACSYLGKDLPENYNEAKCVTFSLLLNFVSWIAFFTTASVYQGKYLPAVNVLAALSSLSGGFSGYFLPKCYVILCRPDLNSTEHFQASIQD", "UniProt Q49KI5, with tags, fused parts or gaps E206Q/F654L/N523D partner limits assumed": "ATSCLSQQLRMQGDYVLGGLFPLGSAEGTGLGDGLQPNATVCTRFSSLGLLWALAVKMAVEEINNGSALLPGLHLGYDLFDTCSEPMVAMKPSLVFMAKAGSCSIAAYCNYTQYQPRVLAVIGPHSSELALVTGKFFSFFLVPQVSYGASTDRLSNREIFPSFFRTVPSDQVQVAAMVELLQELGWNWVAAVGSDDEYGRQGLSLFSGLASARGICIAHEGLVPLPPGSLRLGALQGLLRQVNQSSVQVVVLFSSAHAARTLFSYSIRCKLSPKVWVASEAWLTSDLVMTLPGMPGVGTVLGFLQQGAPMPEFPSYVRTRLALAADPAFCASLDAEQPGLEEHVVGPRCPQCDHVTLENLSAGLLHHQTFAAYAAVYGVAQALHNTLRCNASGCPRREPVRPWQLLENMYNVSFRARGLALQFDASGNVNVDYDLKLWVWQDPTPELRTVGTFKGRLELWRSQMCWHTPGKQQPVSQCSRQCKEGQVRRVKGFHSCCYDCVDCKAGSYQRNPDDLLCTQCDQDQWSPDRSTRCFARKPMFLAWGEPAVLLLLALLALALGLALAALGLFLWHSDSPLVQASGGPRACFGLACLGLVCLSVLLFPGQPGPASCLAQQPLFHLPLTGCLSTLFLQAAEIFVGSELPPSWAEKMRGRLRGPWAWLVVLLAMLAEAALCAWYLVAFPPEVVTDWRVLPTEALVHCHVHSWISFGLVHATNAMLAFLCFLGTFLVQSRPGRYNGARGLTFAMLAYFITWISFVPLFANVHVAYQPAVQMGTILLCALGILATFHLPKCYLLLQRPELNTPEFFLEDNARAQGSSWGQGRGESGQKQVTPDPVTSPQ"}, "source": "patent US20190021380A1", "about": "(priority 2014, published 2019)", "target": "cat T1R1/T1R3 receptor (Felis catus, UniProt E3UMS2)", "note": "Where two headings read alike, the source gives them in different places."}
{"smiles": "Nc1nc2c(ncn2[C@@H]2O[C@H](COP(=O)(O)O)[C@@H](O)[C@H]2O)c(=O)[nH]1", "note": "[GMP, guanosine monophosphate, reference compound]", "values": [{"measurement": "Activity", "setting": "tested form: disodium salt", "result": "active"}, {"measurement": "EC50", "setting": "tested form: disodium salt", "result": 30, "unit": "µM"}, {"measurement": "Max resp % of IMP", "setting": "tested form: disodium salt", "result": "132.1 % of IMP"}, {"measurement": "Thres", "setting": "tested form: disodium salt", "result": 0.008, "unit": "mM"}]}
{"smiles": "O=P(O)(O)OC[C@H]1O[C@@H](n2cnc3c(=S)[nH]cnc32)[C@H](O)[C@@H]1O", "values": [{"measurement": "Activity", "result": "active"}, {"measurement": "Thres", "result": 0.005, "unit": "mM"}]}
{"smiles": "Nc1nc2c(ncn2[C@H]2C[C@H](O)[C@@H](COP(O)(O)=S)O2)c(=O)[nH]1", "values": [{"measurement": "function as activators of T1R1/T1R3", "setting": "in the presence of alanine, in words, tested form: sodium salt", "result": "activators of T1R1/T1R3"}, {"measurement": "EC50", "setting": "read-out: EC50-with Ala, tested form: sodium salt", "result": 10, "unit": "µM"}, {"measurement": "Max. resp. % of IMP", "setting": "tested form: sodium salt", "result": "86.7 % of IMP"}, {"measurement": "Threshold", "setting": "tested form: sodium salt", "result": 0.0025, "unit": "mM"}]}
